Data on 4 molecules can be found in patent US8168654B2 (priority 2003, dated 2012).

Sequences of proteins named here, by UniProt entry; tags and fusion partners are left off.
UniProt P20309, whole entry, looked up: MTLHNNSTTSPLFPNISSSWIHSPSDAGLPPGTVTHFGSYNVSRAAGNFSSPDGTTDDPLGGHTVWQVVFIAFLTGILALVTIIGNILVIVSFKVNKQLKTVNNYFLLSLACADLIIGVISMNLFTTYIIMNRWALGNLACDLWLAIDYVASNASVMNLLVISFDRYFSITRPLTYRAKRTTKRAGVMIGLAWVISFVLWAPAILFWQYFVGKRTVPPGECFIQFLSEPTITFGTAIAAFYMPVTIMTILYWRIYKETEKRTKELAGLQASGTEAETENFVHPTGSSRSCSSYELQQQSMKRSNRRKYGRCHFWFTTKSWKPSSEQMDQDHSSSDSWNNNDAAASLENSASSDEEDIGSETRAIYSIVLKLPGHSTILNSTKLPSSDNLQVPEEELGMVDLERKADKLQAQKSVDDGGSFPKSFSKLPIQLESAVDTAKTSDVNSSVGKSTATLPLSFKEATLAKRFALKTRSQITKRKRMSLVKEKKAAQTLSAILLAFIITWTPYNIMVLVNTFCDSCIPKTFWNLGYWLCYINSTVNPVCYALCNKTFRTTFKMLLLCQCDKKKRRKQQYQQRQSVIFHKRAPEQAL

The assay addresses human muscarinic acetylcholine M3 receptor (Homo sapiens, UniProt P20309). In words: competitive filtration binding assay with [3H]NMS at human M3 receptor. The following applies: read-out: M3 Ki; membranes from CHO cells stably transfected with human M3 receptor; [3H]NMS 0.25 nM; 17 hours at room temperature; Ki derived by Cheng-Prusoff correction.
With `CCC#CC[N+]12CCC(CC1)[C@@H](OC(=O)C(O)(c1cccs1)c1cccs1)C2`, the Ki came out at 0.5 nM.

As for `CC(C)C#CC[N+]12CCC(CC1)[C@@H](OC(=O)C(O)(c1cccs1)c1cccs1)C2`, the Ki was found to be 0.7 nM.

As to `O=C(NCC[N+]12CCC(CC1)[C@@H](OC(=O)C(O)(c1ccccc1)c1ccccc1)C2)c1ccco1`, the Ki was found to be 0.7 nM.

Consider `CCCC#CC[N+]12CCC(CC1)[C@@H](OC(=O)C(O)(c1cccs1)c1cccs1)C2`, for which the Ki is 0.2 nM.
